The results in this text go back to patent publication EP4696711A1, “ANTIGEN BINDING MOLECULE SPECIFICALLY BINDING TO EGFR AND MUC1, DRUG CONJUGATE THEREOF, AND MEDICAL USE THEREOF” (Jiangsu Hengrui Pharmaceuticals Co., Ltd., priority 2023, dated 2024).

The test system of data set [1] is HPAC cells. The data set is described as follows: FACS-based affinity of monoclonal antibodies, bispecific antibodies and ADCs for tumor cells. It is filed as binding, human. The note with it: unit inferred, / means undetectable. The protocol: The culture medium in the cell culture flask was discarded, and the cells were washed once with PBS and then digested with an appropriate amount of trypsin (Invitrogen, Cat. No. 25200072). HCC827, T47D, and HPAC cells were added to a 96-well plate at 100,000 cells/well. After the plate was centrifuged at 300 g for 5 min, the supernatant was discarded, and the cells were washed once with a PBS buffer containing 2% FBS. The antibodies were 5-fold diluted from a starting concentration of 20 µg/mL using a PBS buffer containing 2% FBS to obtain a total of 8 concentration gradients. The antibody samples were added at 100 µL/well, and the cells were resuspended and incubated at 4 °C for 1 h. After the plate was centrifuged at 300 g for 5 min, the supernatant was discarded, and the cells were washed twice with a PBS buffer containing 2% FBS. […] After the plate was centrifuged at 300 g for 5 min, the supernatant was discarded, and the cells were washed twice with a PBS buffer containing 2% FBS. The cells were resuspended in 100 µL of a PBS buffer containing 2% FBS and analyzed using an instrument.
The culture medium in the cell culture flask was discarded, and the cells were washed once with PBS and then digested with an appropriate amount of trypsin (Invitrogen, Cat. No. 25200072). […] The cells were resuspended in 100 µL of a PBS buffer containing 2% FBS and analyzed using an instrument.

Data set [2] concerns human non-small cell lung cancer HCC827 tumor-bearing mice. Description: Efficacy of ADCs in in vivo HCC827 CDX model. The note with it: 3 mpk.
The test system of data set [3] is HPAC cells. The note with it: 6 days, CTG.
Data set [4] concerns human pancreatic acinar epithelial carcinoma cell HPAC tumor-bearing mice. Description: Efficacy of ADCs in in vivo HPAC CDX model. The following applies: 3 mpk.
Where [5] appears, read: one dose, intraperitoneal injection, D30.
Setting [6] is: D1 D9, intraperitoneal injection, D30.

B1: ZalH4-9-A: EGFR antibody ZalH4 conjugated to toxin 9-A; average DAR n = 5.94 (conjugate)
heavy: QVQLVESGGGVVQPGRSLRLSCAASGFTFSTYGMHWVRQAPGKGLEWVAVIWDDGSYKYYGDSVKGRFTISRDNSKNTLYLQMNSLRAEDTAVYYCARDGVTMVRGVMKDYFDYWGQGTLVTVSSASTKGPSVFPLAPSSKSTSGGTAALGCLVKDYFPEPVTVSWNSGALTSGVHTFPAVLQSSGLYSLSSVVTVPSSSLGTQTYICNVNHKPSNTKVDKKV[human IgG1 Fc not spelt out]
light: DIQLTQSPSSLSASVGDRVTITCRASQDISSALVWYQQKPGKAPKLLIYDASSLESGVPSRFSGSESGTDFTLTISSLQPEDFATYYCQQFNSYPLTFGGGTKVEIKRTVAAPSVFIFPPSDEQLKSGTASVVCLLNNFYPREAKVQWKVDNALQSGNSQESVTEQDSKDSTYSLSSTLTLSKADYEKHKVYACEVTHQGLSSPVTKSFNRGEC
Usually EC50 stands for the concentration that produces a half-maximal response. Broadly, the IC50 is the midpoint of a concentration-inhibition curve. Read a low IC50 as higher potency. In the case of B1, the concentration giving a half-maximal response (EC50) in the data set with HPAC cells [1] was determined as 0.9 nM. Besides, the results for the “Mean tumor volume (mm^3) D30” value in data set [2] (setting [5]) and in data set [4] (setting [6]) were 38.30 mm^3 and 911.47 mm^3, respectively. The “Tumor growth inhibition rate (%) D30” value in data set [2] (setting [5]) was 122.10%; in data set [4] (setting [6]), 50.90%. Further, the “Number of animals per group (number of deaths)” value in data set [2] (number of deaths, one dose i.p.) is 10(0); in data set [4] (number of deaths, D1 D9 i.p.) it was 8(0). In the data set with HPAC cells [3], this molecule returned an IC50 of 204 nM. In the data set with HPAC cells [3], this molecule registered an IMax% of 60.81%.
